PMC12154284, “FYCO1 Peptide Analogs: Design and Characterization of Autophagy Inhibitors as Co-Adjuvants in Taxane Chemotherapy of Prostate Cancer” (International Journal of Molecular Sciences, 2025)

Tests used:
[1] = target: human recombinant His-tagged LC3B (Homo sapiens, UniProt Q9GZQ8); assay: MST binding to human recombinant His-tagged LC3B; details: for Kd: MST power 40%, exc. power 20%, 25 °C, LC3B 10 nM, two independent experiments, read-out: Kd (Table S1)
Description: To measure the dissociation constants (Kd) of the peptides on human recombinant His-tagged LC3B protein, MST experiments were carried out on a Monolith NT.115^Pico instrument (see the Materials and Methods section for details). […] To note, the slightly lower Kd value observed by Cerulli and coworkers could be explained by the presence of additional D and W residues in the amino- and carboxy-terminal groups, respectively, in the FYCO1 sequence tested by them. Next, the binding affinity of the peptides AM2, AM6, AM7, and AM10 to the human LC3B protein was assessed. […] In addition, from the MST experiments, it is clearly observable that the iodine group of AM2 stabilizes the complex; in fact, the points of the Kd curve fit much better, and this is reflected in a high signal-to-noise ratio (SNR) value (14.4, Supplementary Materials, Table S1).
The interaction between peptides (FYCO1-LIR, AM2, AM6, AM7, AM10) and the LC3B protein was evaluated using the Monolith NT.115^Pico instrument (NanoTemper Technologies GmbH, München, Germany). This technique enables the determination of the dissociation constant (Kd) across a concentration range spanning from 1 picomolar (pM) to the millimolar (mM) level. The experimental conditions mirrored those in our previously published work. […] A constant concentration of red-labelled LC3B (10 nM) was incubated with sixteen 1:1 serial dilutions of peptides (concentration details are consultable in the Supplementary Materials, Table S1). […] After 15 min of incubation at room temperature, samples were loaded into standard capillaries (Product No. MO-K022; NanoTemper Technologies) and analyzed at 25 °C with 20% excitation power and medium MST power (40%) using the “Binding Affinity” mode available in the MO.Control v1.6 software (NanoTemper Technologies GmbH, München, Germany). Prior to Kd determination, peptide auto-fluorescence was assessed. […] The “Capillary Scan” graphs, showing the fluorescence homogeneity in the capillaries of all biophysically tested peptides, are provided in the Supplementary Materials, Figure S5. […]

MCF-7 cells = assay: MTS cell viability, MCF-7; format: cell-based; details: 72 h
Description: The study was conducted on several cancer cells. Human CRPC cell lines (PC-3 and DU145) were purchased from the American Type Culture Collection (ATCC, Manassas, VA, USA) and cultured at 37 °C and 5% CO2 in RPMI 1640 (EuroClone, Milano, Italy) supplemented, respectively, with 7.5% (PC3) and 5% (DU145) FBS (Gibco, ThermoFisher Scientific, Waltham, MA, USA), 1% L-glutamine, and antibiotics (100 IU/mL penicillin G). […]
For viability studies, MTS (Cell Titer 96 Aqueous One Solution Cell Proliferation Assay) (Promega, Nacka, Sweden) and 3-(4,5-dimethylthiazole-2-yl)-2,5-diphenyltetrazolium bromide (MTT) (Sigma-Aldrich, St. Louis, MO, USA) assays were conducted. […] The absorbance (λ = 550 nm) was measured by an EnSpire Multimode Plate reader (Perkin Elmer, Milano, Italy). The absorbance value of untreated cells was set at 100% (control), and the viability of treated cells was expressed as a percentage of the control. […] After 72 h, cell viability was assessed using an MTS assay according to the manufacturer’s protocol using a 96-well-plate spectrophotometer (Varioskan Flash Multimode Reader; ThermoFisher Scientific, Waltham, MA, USA) set at λ = 490 nm. The absorbance value of untreated cells was set at 100% (control), and the viability of treated cells was expressed as a percentage of the control. […]

[2] = test system: LC3-I and LC3-II in PC-3 cells; assay: Western blot of LC3-I and LC3-II in PC-3 cells; format: cell-based, Human
Description: PC-3 cells were plated at 2 × 10^5 cells/dish in 6 cm dishes and treated with different compounds. At the end of the treatments the cells were lysed in RIPA buffer. Protein extracts (15–35 μg) were resuspended in presence of reducing Sample buffer (Bio-Rad Laboratories, Segrate, Milano, Italy), heated at 95 °C for 5 min and separated by SDS-PAGE WB. Proteins were transferred onto nitrocellulose or PVDF membranes. After blocking with nonfat dried milk, membranes were incubated with anti-ATG5 (1:1000) (#12994) Cell Signaling Technology Inc. (Boston, MA, USA), anti-LC3 (1:1000) (L8918) (Sigma-Aldrich), anti-SQSTM1/p62 (1:2000) (PA5-20839) (Thermo Fisher Scientific, Waltham, MA, USA), anti-cleaved-caspase-3 (1:500) (#9664) Cell Signaling Technology Inc. primary antibodies overnight at 4 °C. Horseradish peroxidase (HRP) conjugated secondary anti-rabbit or anti-mouse antibodies were used for 1 h at room temperature and the membranes were processed using chemiluminescence kit Cyanagen Ultra (Cyanagen, Bologna, Italy). In each WB experiment alpha-tubulin expression (T6199) (Sigma-Aldrich, St. Louis, MO, USA) was evaluated as a protein control. Relative optical density of the bands was assessed by ImageJ software (version 1.54g). Uncropped WB images are available in the Supporting Information.

## CC[C@H](C)[C@H](NC(=O)[C@H](CC(=O)O)NC(=O)[C@H](Cc1ccc(I)cc1)NC(=O)[C@@H](NC(=O)[C@H](C)NC(=O)[C@@H](N)CC(=O)O)C(C)C)C(=O)N[C@H](C(=O)N[C@H](C(=O)N[C@@H](CC(=O)O)C(=O)N[C@@H](CCC(=O)O)C(=O)N[C@@H](CCC(=O)O)C(=O)N[C@@H](CC(C)C)C(=O)O)[C@@H](C)O)[C@@H](C)CC [AM2]
[1]; MST
  Kd relative to FYCO1-LIR, in words: nearly halved the Kd value

## CC[C@H](C)[C@H](NC(=O)[C@H](CC(=O)O)NC(=O)[C@H](Cc1ccccc1)NC(=O)[C@@H](NC(=O)[C@H](C)NC(=O)[C@@H](N)CC(=O)O)C(C)C)C(=O)N[C@@H](CCSC)C(=O)N[C@H](C(=O)N[C@H]1CSSC[C@@H](C(=O)O)NC(=O)[C@H](CCC(=O)O)NC(=O)[C@H](CCC(=O)O)NC1=O)[C@@H](C)O [AM6]
[1]
  Kd: 615 ± 228 nM

## CC[C@H](C)[C@H](NC(=O)[C@H](CC(=O)O)NC(=O)[C@H](Cc1ccc(I)cc1)NC(=O)[C@@H](NC(=O)[C@H](C)NC(=O)[C@@H](N)CC(=O)O)C(C)C)C(=O)N[C@@H](CCSC)C(=O)N[C@H](C(=O)N[C@H]1CSSC[C@@H](C(=O)O)NC(=O)[C@H](CCC(=O)O)NC(=O)[C@H](CCC(=O)O)NC1=O)[C@@H](C)O [AM10]
MCF-7 cells
  responsiveness of MCF-7 relative to A549 and A375: MCF-7 cells are more responsive than the other tested cell lines
[2]; 5 µM
  LC3-II/LC3-I ratio, 48 h: without modifying the LC3-II/LC3-I ratio
[2]; 48 h
  LC3-II/LC3-I ratio, Doc/AM10 experiment: does not determine a change in the LC3-II/LC3-I ratio

## CC[C@H](C)[C@H](NC(=O)[C@H](CC(=O)O)NC(=O)[C@H](Cc1ccccc1)NC(=O)[C@@H](NC(=O)[C@H](C)NC(=O)[C@@H](N)CC(=O)O)C(C)C)C(=O)N[C@H](C(=O)N[C@H](C(=O)N[C@@H](CC(=O)O)C(=O)N[C@@H](CCC(=O)O)C(=O)N[C@@H](CCC(=O)O)C(=O)N[C@@H](CC(C)C)C(=O)O)[C@@H](C)O)[C@@H](C)CC [FYCO1-LIR, reference compound]
[1]
  Kd: 3590 ± 1160 nM
